# Values of other authors, collected in US20020136817A1, “Use of germ flour of certain fruits for the manufacture of food products useful for the treatment of phytate deficiency states” (priority 1999, published 2002).
# Conditions: doses at which maximum excretions are produced; cited from earlier work
structure (smiles),measurement,value
"O=P(O)(O)O[C@H]1[C@H](OP(=O)(O)O)[C@@H](OP(=O)(O)O)[C@H](OP(=O)(O)O)[C@@H](OP(=O)(O)O)[C@H]1OP(=O)(O)O [phytate, inositol hexaphosphate]",effect on bioavailability of oligoelements such as Zn(II) and Fe(III),do not affect the bioavailability
